Assay results from patent publication US12583900B2, “Peptide conjugates and methods of use” (The Scripps Research Institute, priority 2019, dated 2026).

Protein sequences, listed by entry. Tags and fused reporters are not part of them. Residues count along the entry.
UniProt P02770, 25-608: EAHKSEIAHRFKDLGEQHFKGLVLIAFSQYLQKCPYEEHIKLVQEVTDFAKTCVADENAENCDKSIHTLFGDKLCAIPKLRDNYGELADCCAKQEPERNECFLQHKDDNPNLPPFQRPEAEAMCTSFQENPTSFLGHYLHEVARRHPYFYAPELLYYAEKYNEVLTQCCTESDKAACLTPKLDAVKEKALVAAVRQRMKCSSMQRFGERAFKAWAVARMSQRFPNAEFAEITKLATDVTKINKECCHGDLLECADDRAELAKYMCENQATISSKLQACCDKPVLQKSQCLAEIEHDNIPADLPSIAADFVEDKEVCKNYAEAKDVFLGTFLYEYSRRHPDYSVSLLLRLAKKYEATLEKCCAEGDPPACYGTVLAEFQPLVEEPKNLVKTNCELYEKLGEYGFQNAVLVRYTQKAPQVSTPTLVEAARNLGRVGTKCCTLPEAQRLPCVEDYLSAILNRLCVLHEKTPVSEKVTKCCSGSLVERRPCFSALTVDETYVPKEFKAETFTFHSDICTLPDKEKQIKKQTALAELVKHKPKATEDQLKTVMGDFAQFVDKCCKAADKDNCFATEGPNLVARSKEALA
UniProt P02768, 25-609: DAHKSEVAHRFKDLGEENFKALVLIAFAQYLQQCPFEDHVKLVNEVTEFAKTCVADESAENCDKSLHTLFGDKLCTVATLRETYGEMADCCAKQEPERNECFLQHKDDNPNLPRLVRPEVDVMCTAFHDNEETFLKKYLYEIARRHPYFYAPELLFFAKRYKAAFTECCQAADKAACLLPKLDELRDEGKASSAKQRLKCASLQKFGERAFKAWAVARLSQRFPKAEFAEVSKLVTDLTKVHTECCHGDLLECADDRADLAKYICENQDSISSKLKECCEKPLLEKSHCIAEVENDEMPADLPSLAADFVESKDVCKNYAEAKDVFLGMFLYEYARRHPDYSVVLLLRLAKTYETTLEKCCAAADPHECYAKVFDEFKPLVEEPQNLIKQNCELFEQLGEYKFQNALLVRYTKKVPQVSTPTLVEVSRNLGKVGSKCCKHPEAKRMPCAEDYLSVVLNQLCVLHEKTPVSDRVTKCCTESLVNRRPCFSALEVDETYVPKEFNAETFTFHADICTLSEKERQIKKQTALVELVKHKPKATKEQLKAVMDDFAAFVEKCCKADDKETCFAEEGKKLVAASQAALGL

Tests used:
[1] = Plasma peptide stability in mouse plasma, LC-MS (QTOF)
rat serum albumin (RSA) = rat serum albumin (RSA) (Rattus norvegicus, UniProt P02770); assay: Biacore SPR serum albumin binding (RSA)
Protocol: Conjugate serum albumin binding affinities were measured directly using a Biacore surface plasmon resonance (SPR) assay, which were used to calculate the unbound fraction (fu) for each conjugate. Half-life was calculated using the steady-state volume of distribution (Vss) and clearance (CL) using the following equation: […]
Predicted human half-lives based on allometric scaling corrected for albumin binding are shown in Table 19 alongside experimentally determined parameters for both rat (RSA) and human serum albumin (HSA). […] In addition no large species differences were observed.

[2] = target: human serum albumin (HSA) (Homo sapiens, UniProt P02768); assay: Biacore SPR serum albumin binding (HSA); conditions: unbound fraction calculated from HSA binding affinity

Substance | complete disappearance in mouse plasma (time) [1] [h] | half-life in mouse plasma ([1]; 37° C.) [min] | Kd (rat serum albumin (RSA); Biacore SPR, rat serum albumin) [µM] | fu RSA (rat serum albumin (RSA); unbound fraction calculated from RSA binding affinity) [%] | fu HSA [2] [%]
SRAHQHSMETRTPDINPAWYTGRGIRPVGRF-NH2 [PrRP31] | 1 | ~11 |  |  | 
semaglutide |  |  | 17 | 3.3 | 0.69
